System: glycine receptor
Experiment: Receptor-binding studies in vitro, rat cortex synaptosomes
Details: listed as piracetam

SMILES: NC(=O)CN1CCCC1=O [Piracetam, reference compound]
- Binding to glycine receptors in the brain (in words): inactive
